Laboratory results reported in the NIST ThermoML archive (doi:10.1021/je5004912).
Numbers after ± are expanded uncertainties.

Test: excess molar enthalpy (molar enthalpy of mixing); xn = mol fraction of the nth substance listed
Settings: 101 kPa, Liquid, Flow calorimetry

Work on `CCCCOCCCC` [dibutyl ether] + CCCO yielded an excess molar enthalpy (298.15 K, x1 = 0.0501) of 0.0311 ± 0.00263 kcal/mol, an excess molar enthalpy (298.15 K, x1 = 0.0998) of 0.0602 ± 0.00263 kcal/mol and an excess molar enthalpy (298.15 K, x1 = 0.15) of 0.0882 ± 0.00263 kcal/mol. For the same compound, the excess molar enthalpy (298.15 K, x1 = 0.2) was 0.114 ± 0.00263 kcal/mol, the excess molar enthalpy (298.15 K, x1 = 0.2495) was 0.137 ± 0.00263 kcal/mol and the excess molar enthalpy (298.15 K, x1 = 0.2999) was 0.158 ± 0.00287 kcal/mol. For the same compound, the excess molar enthalpy (298.15 K, x1 = 0.35) was 0.177 ± 0.00287 kcal/mol, the excess molar enthalpy (298.15 K, x1 = 0.3998) was 0.193 ± 0.00287 kcal/mol and the excess molar enthalpy (298.15 K, x1 = 0.4499) was 0.206 ± 0.00287 kcal/mol. The excess molar enthalpy (298.15 K, x1 = 0.4997) was 0.216 ± 0.00287 kcal/mol, the excess molar enthalpy (298.15 K, x1 = 0.5498) was 0.223 ± 0.00287 kcal/mol and the excess molar enthalpy (298.15 K, x1 = 0.5998) was 0.227 ± 0.00287 kcal/mol. It also gave an excess molar enthalpy (298.15 K, x1 = 0.6494) of 0.227 ± 0.00287 kcal/mol, an excess molar enthalpy (298.15 K, x1 = 0.6995) of 0.223 ± 0.00287 kcal/mol and an excess molar enthalpy (298.15 K, x1 = 0.7499) of 0.214 ± 0.00287 kcal/mol. The excess molar enthalpy (298.15 K, x1 = 0.8002) was 0.199 ± 0.00287 kcal/mol, the excess molar enthalpy (298.15 K, x1 = 0.8501) was 0.175 ± 0.00287 kcal/mol and the excess molar enthalpy (298.15 K, x1 = 0.8992) was 0.14 ± 0.00311 kcal/mol. It also gave an excess molar enthalpy (298.15 K, x1 = 0.9492) of 0.0844 ± 0.00311 kcal/mol, an excess molar enthalpy (313.15 K, x1 = 0.0502) of 0.0359 ± 0.00263 kcal/mol and an excess molar enthalpy (313.15 K, x1 = 0.0998) of 0.0696 ± 0.00263 kcal/mol. For the same compound, the excess molar enthalpy (313.15 K, x1 = 0.1501) was 0.101 ± 0.00263 kcal/mol, the excess molar enthalpy (313.15 K, x1 = 0.2001) was 0.131 ± 0.00287 kcal/mol and the excess molar enthalpy (313.15 K, x1 = 0.2495) was 0.157 ± 0.00287 kcal/mol. The excess molar enthalpy (313.15 K, x1 = 0.3) was 0.181 ± 0.00287 kcal/mol, the excess molar enthalpy (313.15 K, x1 = 0.35) was 0.201 ± 0.00287 kcal/mol and the excess molar enthalpy (313.15 K, x1 = 0.3999) was 0.219 ± 0.00311 kcal/mol. The excess molar enthalpy (313.15 K, x1 = 0.45) was 0.233 ± 0.00311 kcal/mol, the excess molar enthalpy (313.15 K, x1 = 0.4997) was 0.244 ± 0.00311 kcal/mol and the excess molar enthalpy (313.15 K, x1 = 0.5498) was 0.251 ± 0.00311 kcal/mol. For the same compound, the excess molar enthalpy (313.15 K, x1 = 0.5999) was 0.255 ± 0.00311 kcal/mol, the excess molar enthalpy (313.15 K, x1 = 0.6495) was 0.254 ± 0.00311 kcal/mol and the excess molar enthalpy (313.15 K, x1 = 0.6996) was 0.249 ± 0.00311 kcal/mol. It also gave an excess molar enthalpy (313.15 K, x1 = 0.7499) of 0.237 ± 0.00311 kcal/mol, an excess molar enthalpy (313.15 K, x1 = 0.8002) of 0.218 ± 0.00311 kcal/mol and an excess molar enthalpy (313.15 K, x1 = 0.8501) of 0.19 ± 0.00311 kcal/mol. The excess molar enthalpy (313.15 K, x1 = 0.8992) was 0.15 ± 0.00311 kcal/mol and the excess molar enthalpy (313.15 K, x1 = 0.9492) was 0.0887 ± 0.00311 kcal/mol.
